We go through one compound from patent US20160378912A1, “STRUCTURE-BASED MODELING AND TARGET-SELECTIVITY PREDICTION” (EPIGENETX, LLC, priority 2013, published 2016).

Sequences of proteins named here, by UniProt entry; tags and fusion partners are left off.
UniProt Q9UBN7, whole entry: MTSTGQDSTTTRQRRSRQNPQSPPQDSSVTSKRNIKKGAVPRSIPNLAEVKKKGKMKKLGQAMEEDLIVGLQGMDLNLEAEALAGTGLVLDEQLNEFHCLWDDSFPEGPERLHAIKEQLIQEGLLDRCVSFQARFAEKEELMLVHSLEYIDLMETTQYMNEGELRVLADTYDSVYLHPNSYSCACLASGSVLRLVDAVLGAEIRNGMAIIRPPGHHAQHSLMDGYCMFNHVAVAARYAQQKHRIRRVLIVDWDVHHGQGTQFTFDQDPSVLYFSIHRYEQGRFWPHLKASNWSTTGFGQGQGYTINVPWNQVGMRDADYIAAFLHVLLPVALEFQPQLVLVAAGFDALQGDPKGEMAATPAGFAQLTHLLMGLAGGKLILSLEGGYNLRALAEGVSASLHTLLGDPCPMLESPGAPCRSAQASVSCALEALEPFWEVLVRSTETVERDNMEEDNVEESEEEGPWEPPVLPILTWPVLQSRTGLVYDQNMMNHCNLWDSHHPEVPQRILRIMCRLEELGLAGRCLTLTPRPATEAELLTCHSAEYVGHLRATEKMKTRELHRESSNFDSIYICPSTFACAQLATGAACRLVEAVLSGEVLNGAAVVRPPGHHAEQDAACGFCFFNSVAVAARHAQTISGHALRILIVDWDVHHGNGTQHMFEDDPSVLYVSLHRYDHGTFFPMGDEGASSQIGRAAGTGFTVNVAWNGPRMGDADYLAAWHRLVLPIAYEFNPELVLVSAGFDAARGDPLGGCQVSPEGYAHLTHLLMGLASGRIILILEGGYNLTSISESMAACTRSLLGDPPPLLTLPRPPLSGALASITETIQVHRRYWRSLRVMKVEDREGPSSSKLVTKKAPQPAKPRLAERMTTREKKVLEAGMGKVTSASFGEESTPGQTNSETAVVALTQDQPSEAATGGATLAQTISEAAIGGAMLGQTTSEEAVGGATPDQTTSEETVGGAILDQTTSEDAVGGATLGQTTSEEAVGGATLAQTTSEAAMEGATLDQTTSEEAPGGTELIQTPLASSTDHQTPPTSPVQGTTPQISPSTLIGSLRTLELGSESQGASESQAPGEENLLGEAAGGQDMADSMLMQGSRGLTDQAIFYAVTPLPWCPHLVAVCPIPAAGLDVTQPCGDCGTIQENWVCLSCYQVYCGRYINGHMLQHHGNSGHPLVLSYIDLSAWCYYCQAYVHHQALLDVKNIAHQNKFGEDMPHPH
UniProt P56524, whole entry: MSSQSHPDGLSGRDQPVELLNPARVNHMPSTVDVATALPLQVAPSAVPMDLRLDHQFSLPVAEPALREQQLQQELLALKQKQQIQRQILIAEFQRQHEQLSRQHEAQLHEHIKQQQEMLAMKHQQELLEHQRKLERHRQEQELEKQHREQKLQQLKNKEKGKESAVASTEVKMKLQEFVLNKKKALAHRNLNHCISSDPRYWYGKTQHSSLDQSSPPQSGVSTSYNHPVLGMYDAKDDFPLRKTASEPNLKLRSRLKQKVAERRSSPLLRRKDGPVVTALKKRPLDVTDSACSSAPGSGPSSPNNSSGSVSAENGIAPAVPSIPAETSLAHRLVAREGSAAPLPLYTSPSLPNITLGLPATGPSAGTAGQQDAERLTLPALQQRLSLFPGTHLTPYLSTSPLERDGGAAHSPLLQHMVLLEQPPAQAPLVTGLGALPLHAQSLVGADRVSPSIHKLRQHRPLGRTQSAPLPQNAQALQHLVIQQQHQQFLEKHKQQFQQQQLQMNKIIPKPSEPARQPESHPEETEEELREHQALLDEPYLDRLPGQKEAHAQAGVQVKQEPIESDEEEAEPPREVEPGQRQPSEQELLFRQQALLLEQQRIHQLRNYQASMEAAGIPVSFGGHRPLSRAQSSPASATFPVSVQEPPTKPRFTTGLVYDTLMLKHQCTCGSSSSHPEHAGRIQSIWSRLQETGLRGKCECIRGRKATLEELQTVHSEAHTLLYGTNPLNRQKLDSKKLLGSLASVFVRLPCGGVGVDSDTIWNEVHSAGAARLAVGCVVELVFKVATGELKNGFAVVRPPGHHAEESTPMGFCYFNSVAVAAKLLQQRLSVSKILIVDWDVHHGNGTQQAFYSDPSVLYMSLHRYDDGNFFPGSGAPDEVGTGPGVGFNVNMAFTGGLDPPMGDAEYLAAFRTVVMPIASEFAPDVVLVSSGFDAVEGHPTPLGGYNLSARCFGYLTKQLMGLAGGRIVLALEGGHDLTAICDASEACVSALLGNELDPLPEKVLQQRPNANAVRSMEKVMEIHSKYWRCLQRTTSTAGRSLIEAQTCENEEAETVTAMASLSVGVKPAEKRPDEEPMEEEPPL
UniProt Q8WUI4, whole entry: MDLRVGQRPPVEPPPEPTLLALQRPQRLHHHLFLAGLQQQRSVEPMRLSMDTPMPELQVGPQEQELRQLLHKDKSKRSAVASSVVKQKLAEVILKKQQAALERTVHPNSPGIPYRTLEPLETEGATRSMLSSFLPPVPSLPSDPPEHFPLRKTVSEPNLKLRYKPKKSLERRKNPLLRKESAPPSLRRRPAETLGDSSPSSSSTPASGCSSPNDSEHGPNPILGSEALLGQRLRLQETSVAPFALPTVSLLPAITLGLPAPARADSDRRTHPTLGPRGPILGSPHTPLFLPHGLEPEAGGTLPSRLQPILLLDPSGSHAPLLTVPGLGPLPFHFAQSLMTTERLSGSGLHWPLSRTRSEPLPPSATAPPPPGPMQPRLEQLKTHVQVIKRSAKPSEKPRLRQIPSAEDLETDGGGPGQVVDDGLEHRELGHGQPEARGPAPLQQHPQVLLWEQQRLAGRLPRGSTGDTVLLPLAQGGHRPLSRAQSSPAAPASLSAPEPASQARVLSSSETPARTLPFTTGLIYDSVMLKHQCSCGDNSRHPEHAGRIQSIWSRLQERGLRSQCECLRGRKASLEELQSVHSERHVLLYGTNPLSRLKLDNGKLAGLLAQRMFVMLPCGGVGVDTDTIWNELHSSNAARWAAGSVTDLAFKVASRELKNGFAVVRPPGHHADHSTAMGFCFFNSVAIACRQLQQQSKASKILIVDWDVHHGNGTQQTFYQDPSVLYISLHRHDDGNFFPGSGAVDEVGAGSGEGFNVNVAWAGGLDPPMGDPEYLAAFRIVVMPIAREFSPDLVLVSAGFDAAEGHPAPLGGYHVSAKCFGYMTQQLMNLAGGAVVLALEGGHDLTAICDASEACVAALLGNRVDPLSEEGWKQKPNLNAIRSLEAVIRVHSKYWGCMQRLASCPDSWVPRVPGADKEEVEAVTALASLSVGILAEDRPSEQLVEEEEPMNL

One experiment has as its target HDAC6 (Homo sapiens, UniProt Q9UBN7). As to conditions: cited from earlier work; for pIC50exp: HDAC6 experimental activity assigned; for pIC50: training set composition.
Another experiment deals with HDAC isoforms. Kind of experiment: HDAC inhibition profiled over several HDAC isoforms (experimental). In kind it is biochemical, human. As to conditions: range of pIC50 over the profiled HDAC isoforms.
Another experiment addresses HDAC4 (Homo sapiens, UniProt P56524). As to conditions: cited from earlier work.
For a further experiment, the target named is HDAC7 (Homo sapiens, UniProt Q8WUI4). As to conditions: cited from earlier work.
[1] abbreviates: read-out: HDACs inhibitory activities IC50, training set.

Each structure is given as a SMILES string. Like-named read-outs stand apart in the source and are kept apart here.

On to `O=C(CCCCCCC(=O)NO)NO`, for which the pIC50exp at HDAC6 (HDAC6-1 (histone catalytic domain)) and on HDAC6 (HDAC6-2 (tubulin catalytic domain)) was 7 throughout. The pIC50 at HDAC6 (HDAC6-1) was 7.00; at HDAC6 (HDAC6-2) it was 7.00; at HDAC4 (training set composition), 5.89; on HDAC7 (training set composition), 5.89. Besides, the half-maximal inhibitory concentration (IC50) at HDAC6 (read-out: HDACs inhibitory activities IC50, HDAC6, training set) is 100 nM; at HDAC4 (setting [1]), 1400 nM; at HDAC7 (setting [1]), 1300 nM. Also, the “Bioactivity range (ΔpIC50) DpIC50” value in the experiment on HDAC isoforms is 1.66.

In general, pIC50 refers to the negative decadic logarithm of the IC50, by convention in mol/L. A word on the IC50: it is the concentration needed to halve the response being measured.
